This is an account of results in US8658697B2 (priority 2004, dated 2014).

The data set concerns Vero cells.

For the molecule `CC(NC(=O)NNS(=O)(=O)c1ccc(OC(F)F)cc1)(C(F)(F)F)C(F)(F)F` [ST-294, N-2-(1,1,1,3,3,3-hexafluoro-1-methylpropyl)-2-[(4-difluoromethoxyphenyl)sulfonyl]hydrazine-1-carboxamide], the “selective index (SI = CC50/EC50)” value was above 416.
